# Measured affinities in a library of Ab-95 light chain variants

Binding partner: SARS-CoV-2 spike HR2 peptide, sequence PDVDLGDISGINAS.

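The starting antibody came from a phage panning campaign against this peptide. The library (AAYL52) carries one to three amino acid substitutions per variant, with no insertions or deletions. The scFvs were displayed on barcoded MATa yeast, the peptide on MATalpha yeast. Pairs that bind mate more often; barcode pairs of the diploids are counted by sequencing. The ratio of observed to expected reads was calibrated, replicate by replicate, on BCL2-family standards whose Kd was known from biolayer interferometry. Mating was done three times.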

Ab-95 is the parent antibody, in scFv form: VH, then three GGGGS repeats, then VL. The heavy chain is unchanged in all variants.
VH: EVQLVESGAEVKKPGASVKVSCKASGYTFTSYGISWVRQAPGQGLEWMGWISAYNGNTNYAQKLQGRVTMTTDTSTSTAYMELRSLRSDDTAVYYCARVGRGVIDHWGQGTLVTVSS
VL: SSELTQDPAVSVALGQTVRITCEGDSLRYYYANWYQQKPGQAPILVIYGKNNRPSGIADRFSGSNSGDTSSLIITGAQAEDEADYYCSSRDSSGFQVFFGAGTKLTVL

Positions count from residue 1 of the parent VL; L27H puts H in place of L. This list gathers variants with a substitution at K50 (VL, numbered from residue 1). Affinities are written as log10 Kd with Kd in nM; a lower number is a better binder. A pair that was not seen in that replicate is written "ND"; this usually means weak binding, but a binder can also be missed. Nonspecific signal, from three strains lacking the peptide, appeared in 28% of pairings of library AAYL52, centred on 3.91 (5% of these signals below 2.90); values are not corrected for it. Also given: how often the same scFv was detected with the empty control strains.

The variant L27H K50T S93I gave ND, ND, 3.58 (controls 2 of 9).
The variant N33T K50E F98H gave 2.54, ND, 3.11 (controls 2 of 9).
The variant N33Y K50W S89T gave ND, 5.44, ND (controls 4 of 9).
The variant D25G R28G K50N gave 1.52, 1.56, 0.97 (controls 4 of 9).
The variant E23V K50D S92E gave 1.68, 1.95, 1.26 (controls 0 of 9).
The variant K50T R90P Q96T gave 3.32, 3.05, 4.10 (controls 4 of 9).
The variant K50F N51E V97Y gave ND, ND, ND (controls 0 of 9).
The variant D25E K50Y V97F gave 2.92, ND, ND (controls 2 of 9).
The variant G24C K50V G94N gave ND, 4.38, ND (controls 4 of 9).
The variant K50T G94D V97E gave ND, ND, ND (controls 0 of 9).
The variant S26G K50P S93F gave 3.79, 3.53, 3.36 (controls 4 of 9).
The variant E23T K50D gave 2.13, 1.87, 1.68 (controls 2 of 9).
The variant G49S K50R G94F gave ND, 4.64, 3.99 (controls 1 of 9).
The variant K50P S89W R90W gave 2.42, 2.17, 1.67 (controls 1 of 9).
The variant G24W K50M P54N gave 3.91, ND, 4.56 (controls 5 of 9).
The variant A32D N33G K50P gave 4.06, ND, ND (controls 5 of 9).
The variant D25S K50F P54A gave 4.52, 3.78, 3.95 (controls 2 of 9).
The variant K50E F95W Q96S gave 2.19, 2.29, 1.95 (controls 2 of 9).
The variant E23G G24E K50T gave 5.43, 5.89, 3.66 (controls 3 of 9).
The variant N33C K50Y S92D gave 4.91, ND, ND (controls 3 of 9).
The variant K50S N52E S92C gave 3.94, 5.00, ND (controls 3 of 9).
The variant G24N K50A R90N gave ND, ND, ND (controls 3 of 9).
The variant K50M gave 2.96, 2.13, 2.38 (controls 3 of 9).
The variant K50N F95K gave 3.30, 2.40, 1.90 (controls 0 of 9).
The variant K50A S55I S88M gave 2.03, 1.99, 1.85 (controls 1 of 9).
The variant K50N R90Q Q96R gave 1.56, 1.58, 0.99 (controls 4 of 9).
The variant L27V K50D G94S gave 3.62, 3.32, 2.38 (controls 0 of 9).
The variant L27M K50P R53L gave ND, 4.68, ND (controls 2 of 9).
The variant R28M K50L gave 3.26, 3.53, 3.69 (controls 6 of 9).
The variant E23P K50S S88A gave 4.64, 4.30, 4.63 (controls 1 of 9).
The variant L27G K50T F98T gave 4.44, 3.69, 3.71 (controls 2 of 9).
The variant Y31R K50N F95C gave 1.04, 0.86, 0.41 (controls 1 of 9).
The variant S26E K50G R53F gave 4.26, ND, 2.77 (controls 2 of 9).
The variant R28M K50V S88E gave 3.72, 3.70, 3.91 (controls 4 of 9).
The variant R28W Y31F K50D gave 3.37, 2.55, ND (controls 1 of 9).
The variant K50D S92C gave ND, ND, ND (controls 2 of 9).
The variant G24L N33D K50W gave 3.41, ND, ND (controls 1 of 9).
The variant K50R gave 2.49, 2.17, 2.05 (controls 6 of 9).
The variant Y29T K50E R53E gave 4.42, 3.20, 4.10 (controls 5 of 9).
The variant G24S K50S P54T gave ND, ND, ND (controls 2 of 9).
The variant K50G D91G F95D gave 2.01, 2.23, 1.46 (controls 2 of 9).
The variant E23V Y29G K50R gave 1.79, 1.60, 1.15 (controls 4 of 9).
The variant Y30K K50E R53H gave 1.28, 1.59, 0.82 (controls 5 of 9).
The variant K50M F95V gave 2.73, 2.86, 2.44 (controls 3 of 9).

The first 4 variants above that were never detected:

For K50F N51E V97Y, the assay gave ND, ND, ND (controls 0 of 9).
For K50T G94D V97E, the assay gave ND, ND, ND (controls 0 of 9).
For G24N K50A R90N, the assay gave ND, ND, ND (controls 3 of 9).
For K50D S92C, the assay gave ND, ND, ND (controls 2 of 9).

Parent in this assay: reference entry 2.31, copy in this library 2.25.

From the AlphaSeq antibody data of Engelhart et al. 2022 (doi:10.1038/s41597-022-01779-4), copy in the FLAb collection.